Results as given in patent publication US4950658A, “Method of medical treatment of Alzheimer's disease” (priority 1988, dated 1990).

What was measured:
acetylcholine = assay: Acetylcholine levels in rat brain after one or two consecutive administrations; format: in vivo
Excerpt: The second administration of the drugs was timed so as to allow acetylcholine levels to return to approximately (+12%) control levels and the concentration of the drug was the highest that would allow 100% survival.

brain cholinesterase = assay: Cholinesterase activity in rat after intramuscular inhibitor; format: in vivo; details: at the doses used

**Q.** What does the source list for `CNC(=O)Oc1ccc2c(c1)[C@]1(C)CCN(C)[C@@H]1N2C` [physostigmine]?
**A.** time at which acetylcholine returned practically to control levels (acetylcholine; first administration): 60 min; time at which the peak value of acetylcholine was reached (acetylcholine; first administration): 15 min; increase in acetylcholine levels after the first administration (acetylcholine; rat brain, first of two consecutive administrations): 70%; duration of the acetylcholine increase after the second administration (acetylcholine; second consecutive administration): 60 min; increase in acetylcholine after the second administration (acetylcholine; second consecutive administration, highest dose allowing 100% survival): 75%; peak cholinesterase inhibition (brain cholinesterase): 65%; time of peak cholinesterase inhibition (brain cholinesterase): 15 min
